Target: human A1AR (Homo sapiens, UniProt P30542)

Chains of the proteins cited; added tags and fusions are not shown.
UniProt P30542, whole entry: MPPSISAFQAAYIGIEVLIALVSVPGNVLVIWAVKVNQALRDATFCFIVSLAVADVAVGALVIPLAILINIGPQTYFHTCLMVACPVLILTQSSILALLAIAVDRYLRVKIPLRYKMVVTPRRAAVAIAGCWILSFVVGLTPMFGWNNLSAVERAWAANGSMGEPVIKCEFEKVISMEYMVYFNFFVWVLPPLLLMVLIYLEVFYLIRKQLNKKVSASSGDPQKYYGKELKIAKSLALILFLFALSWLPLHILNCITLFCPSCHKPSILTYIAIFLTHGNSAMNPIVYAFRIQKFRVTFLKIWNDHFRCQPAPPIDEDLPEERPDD

O=C(Cc1ccccc1)Nc1nc2ccc(Cl)cc2c2nc(-c3ccco3)nn12 [MRS1220]
Ki: 72.4 nM
